Experimental data reported in US6274557A, “Inhibition of nitric oxide synthase by amino acids and dipeptides” (Northwestern University, priority 1999, dated 2001).

Experiments:
[1] = molecular target: neuronal nitric oxide synthase (nNOS) from bovine brain (Bos taurus, UniProt A0A3Q1M6M2); assay: Hemoglobin capture assay of nitric oxide formation, nNOS; conditions: N-substituted L-arginines, ratio of the inverse of the Ki values (IC50 for methyl, ethyl)
[2] = molecular target: T1, recombinant bovine endothelial nitric oxide synthase (eNOS) (Bos taurus, UniProt P29473); assay: Hemoglobin capture assay of nitric oxide formation, eNOS; type: biochemical
[3] = molecular target: T1, recombinant bovine endothelial nitric oxide synthase (eNOS); assay: as above; type: biochemical; parameters: made in house; host or cells: E. coli
[4] = listed as N^ω -propargyl-L-arginine

SMILES | Selectivity nNOS/eNOS [1] | Selectivity nNOS/iNOS [1] | Selectivity nNOS/eNOS [1, 4] | Selectivity nNOS/iNOS [1, 4] | pKi [2] | pIC50 [3]
C#CCNC(=N)NCCC[C@H](N)C(=O)O [propargyl, N^ω -propargyl-L-arginine, reference compound] | 1.9 | 1.4 | less than 2 | less than 2 | 6.09 | 
CNC(=N)NCCC[C@H](N)C(=O)O [methyl, N^ω -methyl-L-arginine, reference compound] |  |  |  |  |  | 5.23

pIC50, pKi: −log10 of the molar value.
